Laboratory results published in PubChem BioAssay AID422 (Emory University Molecular Libraries Screening Center, 2006).
“And” between values parts separate entries of the source, which are not always exact repeats. Equal values may be shown once. This is a selection; strong and weak results do not stand in their true shares. The source made the active and inactive calls. No stated cut-off is given here; in the data, active means inhibition above about 30%; inactive means the rest.

Protein sequences, listed by entry. Tags and fused reporters are not part of them. Lines headed by an entry give the natural chain unless they say otherwise; changes in a name come on top.
UniProt P61981: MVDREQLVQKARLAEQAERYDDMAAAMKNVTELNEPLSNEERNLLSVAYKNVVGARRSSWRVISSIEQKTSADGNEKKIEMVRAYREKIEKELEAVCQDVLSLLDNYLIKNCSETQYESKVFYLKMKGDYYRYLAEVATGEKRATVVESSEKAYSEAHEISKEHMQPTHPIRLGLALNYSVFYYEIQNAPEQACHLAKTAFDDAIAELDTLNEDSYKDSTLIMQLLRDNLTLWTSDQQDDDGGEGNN

biological target: 14-3-3 protein gamma (Homo sapiens) (UniProt P61981); assay: 14-3-3 gamma/Raf peptide interaction modulators – biochemical, fluorescence polarization, primary screen (AID 422); conditions: FP, 14-3-3gamma / TMR-pS259-Raf peptide binding; at 40 µM; hits give high values;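 further: 0% = protein plus tracer without compound and 100% = blank with tracer alone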

Q: How did the inhibition turn out when `Nc1cc(N)c2nonc2c1[N+](=O)[O-]` was run?
A: The inhibition was inactive: -15.5%.

Q: With `Cc1c2non([O-])c-2c(C)[n+](=O)[n+]1[O-]` as the molecule, how does the inhibition read?
A: Its inhibition is inactive: -8.77%.

Q: How did the inhibition turn out when `O=C(CCc1ccccc1)OC1CN2CCC1CC2` (stereo not drawn) was run?
A: The inhibition was inactive: -0.98%.

Q: Which inhibition does the source give for `CN(C(=O)Cc1ccc(Cl)c(Cl)c1)[C@H]1CCCC[C@@H]1N1CCCC1` here?
A: Its inhibition is inactive: -3.29% and inactive: 0.72%.

Q: For `COC(=O)C1=C(C(=O)OC)SC(Br)(C(=O)OC)C(Br)(C(=O)OC)S1` (stereo not drawn), which inhibition is on record?
A: The inhibition was inactive: -2.04%.

Q: How did the inhibition turn out when `CCc1nc2c(n1)c1c(non1O)c1c2no[n+]1[O-]` was run?
A: Its inhibition is inactive: -4.71%.

Q: `BrCC1CN=C(N2CCOCC2)S1` (stereo not drawn) was tested. Which inhibition did it give?
A: Its inhibition is inactive: -10.1%.

Q: For `O=P(Nc1nccs1)(c1ccccc1)c1ccccc1`, which inhibition is on record?
A: The inhibition was inactive: -1.36%.

Q: `COc1ccccc1OP(=O)(Nc1ccccn1)Oc1ccccc1OC` was tested. Which inhibition did it give?
A: The inhibition was inactive: -2.74%.

Q: Which inhibition does the source give for `c1nnnn1CCn1cnnn1` here?
A: Its inhibition is inactive: -4.18%.

Q: With `O=C(OC1CN2CCC1CC2)c1cccc(Cl)c1` (stereo not drawn) as the molecule, how does the inhibition read?
A: The inhibition was inactive: -5.37%.

Q: With `CCN(C(=NP(=O)(N1CCOCC1)N1CCOCC1)N1CCOCC1)c1ccc(OC)cc1` as the molecule, how does the inhibition read?
A: Its inhibition is inactive: 6.48%.

Q: `CCOP(=S)(NCC(C)C)OCC` was tested. Which inhibition did it give?
A: Its inhibition is inactive: 1.09%.

Q: For `CN(C(=O)Cc1ccc(Cl)c(Cl)c1)[C@@H]1CCCC[C@@H]1N1CCCC1`, which inhibition is on record?
A: The inhibition was inactive: -2.4%.

Q: How did the inhibition turn out when `Cc1ccc([N+](=O)[O-])c2no[n+]([O-])c12` was run?
A: The inhibition was inactive: -15%.

Q: How did the inhibition turn out when `O=P1(Nc2nc3ccc(Cl)cc3s2)COc2ccccc2O1` (stereo not drawn) was run?
A: The inhibition was inactive: -6.14%.

Q: With `CN(C(=O)Cc1ccc(Cl)c(Cl)c1)[C@@H]1CC[C@]2(CCCO2)C[C@H]1N1CCCC1` as the molecule, how does the inhibition read?
A: Its inhibition is inactive: 4.9%.

Q: `Cc1cccc(OCC(=O)OC2CN3CCC2CC3)c1` (stereo not drawn) was tested. Which inhibition did it give?
A: The inhibition was inactive: -1.78%.

Q: With `CCOP1(=S)c2c(C)nn(CCC#N)c2N=C(c2ccc(F)cc2)N1C` (stereo not drawn) as the molecule, how does the inhibition read?
A: The inhibition was inactive: 2.03%.

Q: How did the inhibition turn out when `CN(C(=O)Cc1ccccc1)[C@@H]1CC[C@]2(CCCO2)C[C@H]1N1CCCC1` was run?
A: Its inhibition is inactive: 4.9%.

Q: `Cc1ccc(S(=O)(=O)N2CC(=O)SC2C(Cl)(Cl)Cl)cc1` (stereo not drawn) was tested. Which inhibition did it give?
A: The inhibition was inactive: -12.3%.

Q: How did the inhibition turn out when `O=P(Nc1nccs1)(c1ccccc1)c1nc2ccccc2s1` (stereo not drawn) was run?
A: Its inhibition is inactive: 5.2%.

Q: `CCOP1(=S)c2c(C)nn(CCC#N)c2N=C(c2ccccc2F)N1C` (stereo not drawn) was tested. Which inhibition did it give?
A: The inhibition was inactive: -2.2%.

Q: Which inhibition does the source give for `CN1CC(=O)N/C1=N/P(=O)(OCc1ccccc1)OCc1ccccc1` here?
A: Its inhibition is inactive: 2.78%.

Q: `O=P1(Nc2ncccn2)COc2ccccc2OC1` was tested. Which inhibition did it give?
A: Its inhibition is inactive: -9.93%.

Q: For `O=P1(Nc2ccc(Br)cn2)COc2ccccc2OC1`, which inhibition is on record?
A: The inhibition was inactive: 3.99%.

Q: For `Cc1ccc(OCC(=O)OC2CN3CCC2CC3)cc1` (stereo not drawn), which inhibition is on record?
A: The inhibition was inactive: -4.83%.

Q: Which inhibition does the source give for `Cc1nn(-c2ccccc2)c2c1P(=O)(N1CCOCC1)N(C)C(c1ccccc1)=N2` (stereo not drawn) here?
A: Its inhibition is inactive: -2.2%.

Q: For `O=P(Oc1ccccc1)(Oc1ccccc1)n1c(-c2cccnc2)nc2ccccc21`, which inhibition is on record?
A: The inhibition was inactive: 8.2%.

Q: With `CN(C(=O)Cc1ccc(Cl)c(Cl)c1)[C@@H]1CCCC[C@H]1N1CCCC1` as the molecule, how does the inhibition read?
A: Its inhibition is inactive: 3.85%.

Q: For `CN(CCCl)Cc1cc(Cl)c(NC2=NCCN2)c(Cl)c1`, which inhibition is on record?
A: The inhibition was inactive: -1.42%.

Q: How did the inhibition turn out when `COc1cccc(OP(=O)(Nc2ccccn2)Oc2cccc(OC)c2)c1` was run?
A: Its inhibition is inactive: -3.42%.

Q: For `O=P1(Nc2ccccn2)COc2ccccc2OC1`, which inhibition is on record?
A: Its inhibition is inactive: -2.34%.

Q: `Clc1n[nH]nc1-c1nn[nH][15n]1` was tested. Which inhibition did it give?
A: The inhibition was inactive: -5.6%.

Q: For `Clc1cccc(NC2=NCC(CBr)S2)c1` (stereo not drawn), which inhibition is on record?
A: The inhibition was inactive: 0.48%.

Q: For `COP1(=S)c2c(C)nn(CCC#N)c2N=C(c2ccc(F)cc2)N1C` (stereo not drawn), which inhibition is on record?
A: Its inhibition is inactive: 0.97%.

Q: How did the inhibition turn out when `O=C(COc1ccccc1)OC1CN2CCC1CC2` (stereo not drawn) was run?
A: The inhibition was inactive: -2.55%.

Q: How did the inhibition turn out when `CC(C)c1ccc(OP(=O)(Nc2ccccn2)Oc2ccccc2F)cc1` (stereo not drawn) was run?
A: Its inhibition is inactive: -1.07%.

Q: How did the inhibition turn out when `COC(=O)c1cc([N+](=O)[O-])[nH]n1` was run?
A: Its inhibition is inactive: 11.5%.

Q: Which inhibition does the source give for `O=C(OC1CN2CCC1CC2)C12CC3CC(CC(C3)C1)C2` (stereo not drawn) here?
A: The inhibition was inactive: -9.17% and inactive: 2.28%.

Q: For `COP(=O)(OC)C(NC(=O)c1ccc(C)cc1)=C(Cl)Cl`, which inhibition is on record?
A: The inhibition was inactive: -2.96%.

Q: For `O=C(COc1ccc(F)cc1)OC1CN2CCC1CC2` (stereo not drawn), which inhibition is on record?
A: Its inhibition is inactive: 6.86%.

Q: How did the inhibition turn out when `CN(C)P1(=O)Nc2ccccc2S1` (stereo not drawn) was run?
A: The inhibition was inactive: -4.09%.
